Source: US20120329716A1 (UNIVERSITY OF MANITOBA, published 2012)

Molecular target: Purified human recombinant renin (human, UniProt P00797 67-406)
Assay: cell-based or functional assay

| RENIN INHIBITION % [%] | Binder |
| --- | --- |
| 15.9 | SF [SEQ ID NO. 7] |
| 25.4 | NR [SEQ ID NO. 5] |
| 69.2 | IW [SEQ ID NO. 27] |
| 8.64 | FQ [SEQ ID NO. 12] |
| 49.1 | IR [SEQ ID NO. 1] |
| 22.4 | EF [SEQ ID NO. 3] |
| 37.1 | LW [SEQ ID NO. 28] |
| 8.92 | FK [SEQ ID NO. 11] |
| 6.35 | RF [SEQ ID NO. 10] |
| 20.4 | FT [SEQ ID NO. 9] |
| 28.8 | KF [SEQ ID NO. 2] |
| 15.1 | YR [SEQ ID NO. 8] |
